Molecular target: T1, Biotinylated Rep (E. coli, UniProt P09980 1-673, biotin)
T1 construct: Rep helicase, E. coli; also called E. coli Rep
T1 sequence (looked up): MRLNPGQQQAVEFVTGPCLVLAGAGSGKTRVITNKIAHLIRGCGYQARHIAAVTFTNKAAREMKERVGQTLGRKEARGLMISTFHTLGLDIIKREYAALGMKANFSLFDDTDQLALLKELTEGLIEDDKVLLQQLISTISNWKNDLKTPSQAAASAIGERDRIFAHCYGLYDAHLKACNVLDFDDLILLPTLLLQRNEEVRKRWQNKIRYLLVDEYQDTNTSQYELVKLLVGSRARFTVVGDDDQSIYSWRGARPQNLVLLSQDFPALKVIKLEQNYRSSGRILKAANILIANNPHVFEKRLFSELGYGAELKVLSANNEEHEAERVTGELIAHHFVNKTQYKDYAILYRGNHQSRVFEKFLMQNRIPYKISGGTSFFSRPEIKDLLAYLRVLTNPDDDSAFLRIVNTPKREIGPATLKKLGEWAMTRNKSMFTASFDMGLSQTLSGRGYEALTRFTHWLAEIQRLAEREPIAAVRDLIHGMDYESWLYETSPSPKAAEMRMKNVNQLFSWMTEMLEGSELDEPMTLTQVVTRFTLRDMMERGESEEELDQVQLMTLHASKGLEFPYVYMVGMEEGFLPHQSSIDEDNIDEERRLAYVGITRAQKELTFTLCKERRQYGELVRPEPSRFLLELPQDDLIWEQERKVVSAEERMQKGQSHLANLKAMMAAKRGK
Experiment: SPR; BIAcore T200, 25°C; biotinylated UvrD or Rep immobilised on streptavidin-coated SA chips; Tau or UvrB passed over, ca. 200-4000 nM, 20 µl/min; 10 mM HEPES pH 7.4, 3 mM EDTA, 150 mM NaCl, 10 mM MgCl2, 0.05% Tween 20; single sites binding model
Settings: both partners purified

Kd: 2300 nM
B1: Tau (natural protein, E. coli, UniProt P06710 1-643, looked up)
chain: MSYQVLARKWRPQTFADVVGQEHVLTALANGLSLGRIHHAYLFSGTRGVGKTSIARLLAKGLNCETGITATPCGVCDNCREIEQGRFVDLIEIDAASRTKVEDTRDLLDNVQYAPARGRFKVYLIDEVHMLSRHSFNALLKTLEEPPEHVKFLLATTDPQKLPVTILSRCLQFHLKALDVEQIRHQLEHILNEEHIAHEPRALQLLARAAEGSLRDALSLTDQAIASGDGQVSTQAVSAMLGTLDDDQALSLVEAMVEANGERVMALINEAAARGIEWEALLVEMLGLLHRIAMVQLSPAALGNDMAAIELRMRELARTIPPTDIQLYYQTLLIGRKELPYAPDRRMGVEMTLLRALAFHPRMPLPEPEVPRQSFAPVAPTAVMTPTQVPPQPQSAPQQAPTVPLPETTSQVLAARQQLQRVQGATKAKKSEPAAATRARPVNNAALERLASVTDRVQARPVPSALEKAPAKKEAYRWKATTPVMQQKEVVATPKALKKALEHEKTPELAAKLAAEAIERDPWAAQVSQLSLPKLVEQVALNAWKEESDNAVCLHLRSSQRHLNNRGAQQKLAEALSMLKGSTVELTIVEDDNPAVRTPLEWRQAIYEEKLAQARESIIADNNIQTLRRFFDAELDEESIRPI
notes: Tau subunit of DNA polymerase III, a component of the E. coli replisome; also called Tau protein

Reference: paper doi:10.1101/2021.02.22.432310, “Tetrameric UvrD helicase is located at the E. coli replisome due to frequent replication blocks” (bioRxiv, 2021)
